# Source: ChEMBL document CHEMBL4382201 (J Med Chem, 2018)
# What was measured:
# [1] = Drug metabolism in DMSO-d6/PBS buffer assessed as 4-((2-chloroethyl)(2-hydroxyethyl)amino)phenylboronic acid formation after 10 days in presence of GSH by IT-TOF mass analysis
# dsDNA [2] = assay: Induction of DNA-interstanded-cross-link formation in [32P]-labeled 49-mer duplex DNA (unknown origin) at 1 mM in absence of H2O2 after 16 hrs by PAGE relative to control; type: functional
# Outline: (§1)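 A 32P-labelled 49-mer, annealed with 1.5 equiv complement (65 °C for 3 min in 10 mM potassium phosphate pH 7, 100 mM NaCl, then slow cooling), was used at 1.0 µM before final dilution. Duplex was mixed with compound (final 1 mM), NaCl and potassium phosphate pH 8, with or without H2O2. Incubation 16 h at room temperature, formamide quench, then 20% denaturing PAGE.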
# dsDNA [3] = assay: Potency index, ratio of compound activity to chlorambucil activity for induction of interstanded-cross-link formation in [32P]-labeled 49-mer duplex DNA (unknown origin) in presence of H202 after 16 hrs by PAGE
# dsDNA [4] = assay: Induction of DNA-interstanded-cross-link formation in [32P]-labeled 49-mer duplex DNA (unknown origin) at 1 mM in presence of H2O2 after 16 hrs by PAGE relative to control; type: functional
# Outline: as §1
# [5] = Drug metabolism in DMSO-d6/PBS buffer assessed as N,N-bis(2-chloroethyl)aniline formation after 10 days in presence of GSH by IT-TOF mass analysis
# dsDNA [6] = assay: Potency index, ratio of compound activity to melphalan activity for induction of interstanded-cross-link formation in [32P]-labeled 49-mer duplex DNA (unknown origin) in presence of H202 after 16 hrs by PAGE
smiles,measurement,setting,value
OB(O)c1ccc(N(CCCl)CCCl)cc1,Drug metabolism,[1],Metabolite detected
same,Activity,dsDNA [2],1.7%
same,Ratio,dsDNA [3],8
same,Activity,dsDNA [4],< 65%
same,Drug metabolism,[5],Metabolite detected
same,Ratio,dsDNA [6],8
